# Earlier results as cited in article PMC8015229, “Focus on Human Monoamine Transporter Selectivity. New Human DAT and NET Models, Experimental Validation, and SERT Affinity Exploration” (ACS Chemical Neuroscience, 2020).
# Sequences of proteins named here, by UniProt entry; tags and fusion partners are left off.
# UniProt P31645, whole entry: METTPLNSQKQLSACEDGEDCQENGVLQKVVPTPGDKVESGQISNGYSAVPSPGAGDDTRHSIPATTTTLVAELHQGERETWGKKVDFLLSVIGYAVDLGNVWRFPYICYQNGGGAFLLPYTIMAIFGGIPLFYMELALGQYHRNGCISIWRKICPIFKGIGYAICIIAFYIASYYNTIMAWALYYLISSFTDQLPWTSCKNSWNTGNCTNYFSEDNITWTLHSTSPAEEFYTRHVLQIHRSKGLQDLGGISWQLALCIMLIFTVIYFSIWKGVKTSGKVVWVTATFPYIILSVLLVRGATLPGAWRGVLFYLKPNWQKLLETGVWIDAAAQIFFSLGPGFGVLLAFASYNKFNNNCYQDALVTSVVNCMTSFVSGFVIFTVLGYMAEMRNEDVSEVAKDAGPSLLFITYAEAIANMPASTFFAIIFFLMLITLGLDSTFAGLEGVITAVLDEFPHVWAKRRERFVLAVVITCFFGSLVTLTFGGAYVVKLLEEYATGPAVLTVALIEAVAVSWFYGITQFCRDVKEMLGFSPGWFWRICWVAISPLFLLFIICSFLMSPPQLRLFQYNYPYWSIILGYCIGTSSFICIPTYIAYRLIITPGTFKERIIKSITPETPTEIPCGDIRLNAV
# Molecular target: SERT (Homo sapiens, UniProt P31645)
# Settings: cited from earlier work
compound,measurement,value
"COC(=O)[C@H]1[C@@H](c2ccc(Cl)cc2)C[C@@H]2CC[C@H]1N2C [compound 9, RTI-31]",SERT pKi exp,7.7
